Test results from patent US20260240805A1, “ENTACTOGEN-ASSISTED THERAPY FOR ALCOHOL USE DISORDER AND ADDICTION-RELATED CONDITIONS AND COMORBIDITIES” (Solvonis Therapeutics Ireland Holdings Limited, priority 2021, published 2026).

Key:
patients with AUD [1] = assay: Drinking behavior (TLFB, units of alcohol per week), open-label MDMA-assisted therapy study in AUD post-detox (Example 8); format: in vivo, human; settings: 3 months post-detox; 130.6 units per week in the month before detox; 14 participants; two sessions of 125 mg + 62.5 mg MDMA
patients with AUD [2] = assay: Physiological measures, SUDS and Drug Effects during MDMA sessions (Example 8); format: in vivo, human; settings: two hours after initial dose of 125 mg MDMA; regular antihypertensive not taken
Description: Dosing with MDMA occurred twice during the eight-week course on weeks 3 and 6.
Physiological and tolerability effects during MDMA sessions: In total, 26 drug-assisted psychotherapy sessions with MDMA were administered during the trial. Temperature, blood pressure and heart rate were measured at t=0, before taking MDMA, then half-hourly up to t=2 hours, then hourly thereafter for a minimum of 6-hours from the time of dosing (see FIG. 7).
Subjective Units of Distress (SUDS) and Participant report of Drug Effects were also measured, hourly, throughout the MDMA sessions (see FIG. 7). […] Participants gave their own subjective score (0-10) of whether they felt Drug Effects, and the therapists also recorded their own objective score of how “altered” the participant appeared. There was no significant difference between Observers' and Participants' Drug Effects scores. Drug Effects rose expectedly over the first two hours, with a notable further increase after the booster dose was given at t=2 hours, and a subsequent plateau then decline over the following six hours.

With `CNC(C)Cc1ccc2c(c1)OCO2` (centres unmarked) [MDMA, 1-(1,3-benzodioxol-5-yl)-N-methylpropan-2-amine] the “units of alcohol per week” value (patients with AUD [1]) was 16.9 units of alcohol per week and the “blood pressure (BP), transient abnormal rise in one participant” value (patients with AUD [2]) was 183/118.
